Measurements reported in patent publication US8343945B2, “Carriers, formulations, methods for formulating unstable active agents for external application and uses thereof” (Foamix Ltd., priority 2007, dated 2013).

Assays:
Format in all cases: physicochemical
[1] = Minocycline HCl compatibility tests with excipients (colour change, HPLC assay); details: Summary; compatibility tested after the storage for up to 3 weeks
Description: About 0.5 g foam or pre-foam formulation is dissolved with diluent (65% phosphate buffer: 35% Acetonitrile (ACN)) in a 25 mL volumetric flask. The sample is shaken […] on an inverted shaker stand for 10 min at room temperature. The resulting suspension is centrifuged for 5 minutes at 4000 rpm. The supernatant is separated by vacuum pump and filtered thereafter through a 0.45 μm PTFE+GL filter. The first few drops of the filtrate are discarded. The resultant clear solution layer is analyzed by HPLC using columnRP-8. The content of MCH is calculated against an MCH standard 0.4 mg/mL (concentration). The content of 4-epiminocycline is calculated against MCH standard 0.02 mg/mL (concentration).
Color is tested by visual observation and in particular by comparison to “Pantone® formula guide solid uncoated” colors. […] Minocycline changes color to orange/greenish with oxidation or complexation. These oxidized colors are not desirable. Colors such as 609U/608U/610U are indicative of degradation by the tetracycline antibiotic.
For convenience the excipients were divided into four different groups (I-IV). […]
Oxidation of minocycline after the storage at various temperatures was detected by color change. Assay for content of the active pharmaceutical ingredient (API) and degradation product (4-epiminocycline) was determined in some samples. […]

[2] = Doxycycline Hyclate compatibility test with excipients
Description: (§1) Different compositions of hydrophilic and hydrophobic solvents containing Doxycycline Hyclate (Set I and Set II) and Doxycycline Monohydrate (Set III) were prepared by weighing the antibiotic in a glass vial and shaking overnight with each solvent investigated.
Group II included Doxycycline Hyclate mixed with various vehicles with addition of antioxidants like alpha tocopherol, butylated hydroxytolyene (BHT), ascorbic acid.

[3] = Doxycycline Monohydrate compatibility test with excipients; details: for Compatibility with Doxycycline Monohydrate: Summary, compatibility tested after the storage for up to 3 weeks
Description: as §1, with “investigated. Mixtures of Doxycycline salts 1.04% w/w with solid excipients were prepared in a similar way as for Minocycline HCl.” for “investigated.”
A similar compatibility test was performed on another form of Doxycycline-Doxycycline Monohydrate. Table 17b and Table 18.

[4] = Summary, compatibility tested after the storage for up to 3 weeks

Substance	Compatibility with Minocycline HCL [1]	Compatibility with Doxycycline Hyclate [2, 4]	Compatibility with Doxycycline Monohydrate [3]	Compatibility with Doxycycline Hyclate ([2]; 40° C. and 50° C. for two weeks where stated)	Visual inspection after the storage at 40° C. ([2]; Mixtures of 1.04% w/w of Doxycycline Hyclate with the ingredient, stored at 40° C. for two weeks)	Visual inspection after the storage at 50° C. ([3]; Mixtures of 1.04% w/w of Doxycycline Monohydrate with the ingredient, stored at 50° C. for two weeks)	Compatibility with Doxycycline Monohydrate (text) ([3]; as summarised in text, 40° and 50° C. for two weeks where stated)
Cetearyl octanoate	Yes	Yes	Yes				
Hexylene glycol	No	Yes	No	stable	light yellow solution	Black solution.	oxidized
